System: purine nucleoside phosphorylase
Assay: HPLC-1 in vivo inhibition of purine nucleoside phosphorylase
Conditions: 150 mg/kg; PO
Procedure: PNP-4 activity for the compounds of Formula I is measured radiochemically by measuring the formation of [^14- C]-hypoxanthine from [^14- C]inosine [Biomedicine, 33, 39 (1980)] using human erythrocyte as the enzyme source. An in vivo inhibition of purine nucleoside phophorylase (HPLC-1) enzyme assay is used essentially as disclosed in the Annals of New York Academy of Sciences, Volume 451, Page 313 (1985) to further show the activity of the compounds of Formula I of the present invention. […] Clinically it has been shown that modulation and/or removal of T-cells by throacic duct drainage, lymphapheresis or total lymphoid irradiation gave partial to complete relief from rheumatoid arthritis in patients who were totally refractory to other forms of therapy (A. Tanay, et al, Arthritis and Rheumatism, Vol. 30, No. 1, p 1 (1987). S. Strober, et al, Annual of Internal Medicine, V-102, No. 4, 441-449 (1985); H. G. Nusslein, et al, Arthritis and Rheumatism, V-28, No. 11, 1205-1210 (1985); E. Brahn, et al, ibid, V-27, No. 5, 481-487 (1984), and J. Karsh, et al, ibid, V-24, No 7, 867-873 (1981)). […] (M. E. Weinblatt, et al, Arthritis and Rheumatism, V-30, No. 1 pp 11-17 (January, 1987); O. Forre, et al, Arthritis and Rheumatism, V-30, No. 1, pp 88-92 (January, 1987); M. Dougados, et al, Arthritis and Rheumatism, Vol. 30, No. 1, pp 83-87 (January, 1987);

## Nc1nc2c(Cc3ccsc3)c(N)[nH]c2c(=O)[nH]1 [Example 9, 2,6-Diamino-3,5-dihydro-7-(3-thienylmethyl)-4H-pyrrolo [3,2-d]pyrimidin-4-one]
  HPLC-1 Guanosine: 0.26 µM
  HPLC-1 Inosine: 2.62 µM

— US4923872A, “Analogues of pyrrolo[3,2d]pyrimidin-4-ones” (Warner-Lambert Co., priority 1989, dated 1990)
